From PMC4741889, “Ligand-based chemoinformatic discovery of a novel small molecule inhibitor targeting CDC25 dual specificity phosphatases and displaying in vitro efficacy against melanoma cells” (Oncotarget, 2015)

Tests used:
CDC25A = biological target: T1, CDC25A (Homo sapiens, UniProt P30304); assay: Ki from OMFP hydrolysis kinetics (Lineweaver-Burk), CDC25A; format: biochemical; settings: 20 nM CDC25A, 1–25 μM OMFP; mean ± S.E.
T1 construct: Recombinant forms of the catalytic domains of CDC25A, -B and -C were obtained through the vectors pET28a-CDC25A-cd, pET28a-CDC25B-cd and pET28a-CDC25C-cd; made in house
T1 sequence (P30304 376-482 limits assumed): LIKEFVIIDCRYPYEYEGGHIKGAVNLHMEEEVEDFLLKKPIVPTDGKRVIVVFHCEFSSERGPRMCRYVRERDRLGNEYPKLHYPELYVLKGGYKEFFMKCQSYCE
Protocol: To measure the inhibition constant (Ki) of the recombinant forms of CDC25A, -B and -C towards the various inhibitors, the affinity of the different forms of CDC25 towards OMFP was measured either in the absence or in the presence of fixed concentrations of the various inhibitors. The reaction mixture contained 20 nM CDC25A, or 10 nM CDC25B, or 40 nM CDC25C, and different concentrations of the various inhibitors in 500 μL final volume of 20 mM Tris-HCl, pH 7.8, 1 mM DTT. DMSO was used as vehicle control. […] The corresponding Lineweaver-Burk plots allowed the calculation of the KM for OMFP and of the Vmax of OMFP hydrolysis, expressed as a.u./minmax. […] The Ki values were obtained from the decrease of a.u./minmax in the presence of the inhibitor, according to the equation a.u./mimmax’ = a.u./mimmax/{1 + ([I]/Ki)}, where a.u./mimmax’ represents the Vmax measured in the presence of the concentration [I] of the inhibitor. The Ki values were obtained from at least three independent experiments and reported as mean ± S.E.

CDC25B = biological target: T2, CDC25B (Homo sapiens, UniProt P30305); assay: Ki from OMFP hydrolysis kinetics (Lineweaver-Burk), CDC25B; format: biochemical; settings: 10 nM CDC25B, 1–25 μM OMFP; mean ± S.E.
T2 construct: Recombinant forms of the catalytic domains of CDC25A, -B and -C were obtained through the vectors pET28a-CDC25A-cd, pET28a-CDC25B-cd and pET28a-CDC25C-cd; made in house
T2 sequence (P30305 431-538 limits assumed): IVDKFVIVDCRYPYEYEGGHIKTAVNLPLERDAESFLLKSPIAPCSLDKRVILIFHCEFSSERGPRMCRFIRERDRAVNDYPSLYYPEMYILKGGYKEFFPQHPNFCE
Protocol: The inhibition properties of the effective inhibitors were better investigated through the kinetic measurement of their Ki values.
To measure the inhibition constant (Ki) of the recombinant forms of CDC25A, -B and -C towards the various inhibitors, the affinity of the different forms of CDC25 towards OMFP was measured either in the absence or in the presence of fixed concentrations of the various inhibitors. The reaction mixture contained 20 nM CDC25A, or 10 nM CDC25B, or 40 nM CDC25C, and different concentrations of the various inhibitors in 500 μL final volume of 20 mM Tris-HCl, pH 7.8, 1 mM DTT. DMSO was used as vehicle control. The reaction started by the addition of 1–25 μM OMFP, and the rate of OMFP hydrolysis was measured as indicated before. The corresponding Lineweaver-Burk plots allowed the calculation of the KM for OMFP and of the Vmax of OMFP hydrolysis, expressed as a.u./minmax. […] The Ki values were obtained from the decrease of a.u./minmax in the presence of the inhibitor, according to the equation a.u./mimmax’ = a.u./mimmax/{1 + ([I]/Ki)}, where a.u./mimmax’ represents the Vmax measured in the presence of the concentration [I] of the inhibitor. The Ki values were obtained from at least three independent experiments and reported as mean ± S.E.

Question: How did the Ki (CDC25A) turn out when O=C(O)CCc1c2ccc(=O)c(O)c-2oc2c(O)c(O)ccc12 [NSC 119915, reference compound] was run?
Answer: Its Ki is 340 ± 120 nM.

Question: And the Ki (CDC25B)?
Answer: The Ki was 100 ± 40 nM.
